Measurements as given in ChEMBL document CHEMBL5149971, “Pyridones in drug discovery: Recent advances” (Bioorg Med Chem Lett, 2021).

How the values were obtained:
Human rhinovirus sp. = assay: Irreversible inhibition of human rhinovirus 3C protease assessed as Kobs/[I] by FRET assay
rhinovirus B14 = assay: Irreversible inhibition of human rhinovirus 14 3C protease assessed as Kobs/[I] by FRET assay

K (Human rhinovirus sp.)	K (rhinovirus B14)	SMILES
25000 M⁻¹ s⁻¹	–	CCOC(=O)/C=C/[C@H](CCC(N)=O)NC(=O)[C@H](Cc1ccccc1)NC(=O)[C@H](CC(C)C)NC(=O)OCc1ccccc1
–	147000 M⁻¹ s⁻¹	CCOC(=O)/C=C/[C@H](C[C@@H]1CCNC1=O)NC(=O)[C@@H](CC(=O)[C@@H](NC(=O)c1cc(C)on1)C(C)C)Cc1ccc(F)cc1
